The results in this text go back to US6737064B2, “Method for the diagnosis of neoplastic tissue comprising administering a vasopermeability enhancing peptide of human interleukin-2” (The University of Southern California, priority 1996, dated 2004).

In assay [1] the test system is Raji tumor-bearing nude mice. The assay can be described thus: In vivo vasopermeability / biodistribution study, Raji lymphoma model (tumor uptake of 125I-Lym-1 F(ab')2 after pre-treatment). Conditions: i.v., enhanced Lym-1 uptake relative to Lym-1/IL-2 conjugate, 30-40 pM of peptide per assay. The method, then:
The Raji lymphoma cell line was used to produce heterotransplants in 6-week-old female nude mice by the subcutaneous injection of a 0.2 ml inoculum consisting of 4×10^7 Raji cells and 4×10^6 human fetal fibroblast feeder cells in the left thigh. Three days prior to injection, the mice were irradiated with 400 rads using a cesium irradiator to ensure a high take rate of the implanted cells. The tumors were grown for 14-18 days until they grew to approximately 1 cm in diameter.
To test the relative effects of the immunoconjugates on the biodistribution and tumor uptake of Lym-1 or TNT-1 in tumor-bearing mice, separate groups of 4-5 mice were given intravenous injections of 30 μg of antibody alone or antibody conjugate. At 2.5 hr after injection, each group received 50 μCi of ^125I-labeled Lym-1 or TNT-1 F(ab′)2 fragment as tracer.
All animals were sacrificed 72 hr later, by sodium pentobarbital overdose, for biodistribution analysis. Various organs, blood, and tumor were removed, weighed, and samples were counted in a gamma counter. For each mouse, data were expressed as tumor:organ ratio (cpm per gram tumor/cpm per gram organ) and percent injected dose/gram (% ID/g).
Based on the primary, secondary and tertiary structures of IL-2, a series of distinct peptides were synthesized in order to identify the sequences responsible for increased vascular permeability. […]

Assay [2] has as its system CTLL-2 IL-2 dependent indicator cell line. Put plainly: IL-2 bioassay (proliferation assay, 3H-thymidine). It is filed as cell-based. Conditions: 3-fold serial dilutions from 8.1 pM; 18 hr + 6 hr 3H-thymidine pulse. On the procedure: The growth of an IL-2 dependent indicator cell line, CTLL-2, was used to compare the biologic activity of PEP, PEP conjugates, and positive control human recombinant IL-2. Samples of PEP, PEP conjugates, or IL-2 standards (100μ/well) were serially diluted 3-fold from an initial concentration of 8.1 pM (recombinant IL-2) in sterile 96-well flat bottom microtiter plates. CTLL cells (4×10^5) in a volume of 50 μl were added to each well. Plates were incubated for 18 hr in 5% CO2 at 37° C., then pulsed with 0.5 μCi of ^3H-thymidine for 6 hr (25 μl of a 1:50 dilution of 1.0 mCi in media; Amersham, Arlington Hts. Ill.) prior to harvesting wells onto glass fiber filter paper and liquid scintillation counting in glass minivials.

The test system of assay [3] is K562, Daudi and P815 target cell lines. The assay can be described thus: 51Cr release microcytotoxicity assays (induction of LAK cell killing). Particulars: effectors activated 4 days; 13.7 pM or 80 pM PEP, 13.7 pM conjugates; effector:target 30:1, 10:1, 3.3:1. It counts as cell-based, human PBMC or murine splenocyte effectors. On the procedure: The ability of PEP and PEP conjugates to induce LAK cell killing was tested by ^51Cr release microcytoxicity assays in 96-well microtiter plates as previously described (Katsanis, E., et al., Blood 78: 1286-1291 (1991). Two populations of effector cells were used, human peripheral blood mononuclear cells (PBMC) or murine splenocytes. The effector cells were isolated by Ficoll density gradient centrifugation and activated for 4 days in vitro in media containing 13.7 pM or 80 pM PEP, or 13.7 pM antibody/PEP or HSA/PEP conjugates at a density of 0.5×10^6 cells/ml. Freshly isolated effectors in media without human recombinant IL-2 were used as controls. Human cells were cultured in RPMI-1640 with 2 mM L-glutamine, 100 U/ml penicillin, 100 μg/ml streptomycin, and 10% fetal calf serum. Murine cells were grown in the same culture medium as above, but were supplemented with 10 mM non-essential amino acids, 100 mM sodium pyruvate, and 25 mM 2-mercaptoethanol (Sigma).
Three different tumor target cell lines were tested. PBMC effectors were tested against two malignant tumor target cell lines, K562 (NK sensitive) and Daudi (NK resistant). […]

Regarding “IL-2: Recombinant human IL-2 (aa 1-133) from Hoffman La-Roche or Chiron”, the “Vasopermeability (% Lym-1/IL-2)” value in assay [1] came to 75 % Lym-1/IL-2. Further, the “support of proliferation of CTLL-2 T cell line” value in assay [2] is “highly active”. Also, the “induction of LAK cell killing of target cell lines” value in assay [3] is listed as “highly active”.
